Literature values as cited in article PMC9039622 (Frontiers in Pharmacology, 2022).

Details: ref Strang et al., 2018; cited from earlier work

CO[C@]12CC[C@@]3(C[C@@H]1[C@](C)(O)C(C)(C)C)[C@H]1Cc4ccc(O)c5c4[C@@]3(CCN1)[C@H]2O5
respiratory depression relative to BUP: 10 fold
